# Source: US20260364080A1, “PYRAZOLO-PYRIMIDINONE COMPOUNDS FOR USE IN METHODS OF INHIBITING WEE1 A KINASE” (Acrivon Therapeutics, Inc., priority 2023, published 2026)
# Protein sequences, listed by entry. Tags and fused reporters are not part of them.
# UniProt P30291, whole entry: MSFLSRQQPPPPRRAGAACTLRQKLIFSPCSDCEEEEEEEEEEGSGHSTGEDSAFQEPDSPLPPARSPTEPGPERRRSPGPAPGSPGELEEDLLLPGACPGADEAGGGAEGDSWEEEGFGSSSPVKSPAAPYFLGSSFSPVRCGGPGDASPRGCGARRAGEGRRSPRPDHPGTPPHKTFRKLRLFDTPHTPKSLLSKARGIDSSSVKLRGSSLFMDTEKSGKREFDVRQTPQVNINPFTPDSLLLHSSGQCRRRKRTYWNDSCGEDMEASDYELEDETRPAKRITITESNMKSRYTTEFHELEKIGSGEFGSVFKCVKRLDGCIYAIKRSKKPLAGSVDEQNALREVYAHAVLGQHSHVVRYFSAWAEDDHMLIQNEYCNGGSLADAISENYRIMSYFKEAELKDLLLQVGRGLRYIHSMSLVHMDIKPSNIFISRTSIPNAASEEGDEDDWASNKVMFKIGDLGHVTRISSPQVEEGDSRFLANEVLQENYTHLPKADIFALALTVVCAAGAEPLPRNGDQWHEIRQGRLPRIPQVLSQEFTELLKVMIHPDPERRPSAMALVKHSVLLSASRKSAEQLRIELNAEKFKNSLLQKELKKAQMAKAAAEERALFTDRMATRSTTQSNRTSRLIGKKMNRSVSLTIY
# pEC50: −log10 of the molar value.
# Molecular target: Wee1A kinase (CDK1 Tyr15 phosphorylation in ACHN renal cell carcinoma cells) (Homo sapiens, UniProt P30291)
# Assay: High-content imaging of pCdk1 Y15, Wee1A kinase target engagement in ACHN cells
# Conditions: read-out: CDK1 Tyr15 Phosphorylation EC50, 4 h treatment, nuclear positivity for pCdk1 Y15 vs DMSO control
# Procedure: Each of an ACHN renal cell carcinoma cell line (ATCC) and a DAOY medulloblastoma cell line, and an A427 lung cancer line were cultured in Minimum Essential Medium Eagle supplemented with 10% fetal calf serum (Sigma), 1% Penicillin-Streptomycin and 10 mM HEPES buffer (HyClone). Cell cultures were kept in a humidified incubator at 37 °C and 5% CO2. Cells were routinely tested for Mycoplasma contamination.
# For target engagement assessment of Wee1A kinase inhibition, high-content imaging of ACHN renal cell carcinoma cells was used for quantification of CDK1 phosphorylated on tyrosine 15 by immunofluorescence (“IF”). 20,000 cells per well were seeded in tissue culture treated 96 well plates and treated with compounds at concentrations ranging from 7 to 5,000 nM or from 0.3 to 200 nM for 4h. Cells were fixated for 15 minutes in 4% paraformaldehyde solution, washed in PBS and permeabilized using 0.2% Triton X-100. […] The percentage of cells with nuclear positivity for pCdk1 Y^15 compared to DMSO control was determined for each well and drug dose response curves and EC50 values were calculated and visualized using GraphPad Prism. Target engagement for Wee1A kinase can also be measured using the same AlphaLISA assay in OVCAR3 cells, an ovarian cancer cell line. […]
row,pEC50,SMILES
1,6.30 to 7.00,"CCn1c(=O)c2cnc(Nc3cccc(-c4ccccc4)c3)nc2n1-c1cccc(OC2CCNCC2)n1 [Compound 338, 6-(3-biphenylylamino)-2-ethyl-1-[6-(4-piperidyloxy)-2-pyridyl]-1,2-dihydro-3H-1,2,5,7-tetraazainden-3-one]"
2,> 7.00,"CCn1c(=O)c2cnc(Nc3cccc(-c4ccccc4)c3)nc2n1-c1cccc(OC2CCN(C)CC2)n1 [Compound 339, 6-(3-biphenylylamino)-2-ethyl-1-[6-(1-methyl-4-piperidyloxy)-2-pyridyl]-1,2-dihydro-3H-1,2,5,7-tetraazainden-3-one]"
